{"sequences": {"note": "The chains behind the UniProt entries cited, without tags or fusion partners.", "UniProt P29597, whole entry": "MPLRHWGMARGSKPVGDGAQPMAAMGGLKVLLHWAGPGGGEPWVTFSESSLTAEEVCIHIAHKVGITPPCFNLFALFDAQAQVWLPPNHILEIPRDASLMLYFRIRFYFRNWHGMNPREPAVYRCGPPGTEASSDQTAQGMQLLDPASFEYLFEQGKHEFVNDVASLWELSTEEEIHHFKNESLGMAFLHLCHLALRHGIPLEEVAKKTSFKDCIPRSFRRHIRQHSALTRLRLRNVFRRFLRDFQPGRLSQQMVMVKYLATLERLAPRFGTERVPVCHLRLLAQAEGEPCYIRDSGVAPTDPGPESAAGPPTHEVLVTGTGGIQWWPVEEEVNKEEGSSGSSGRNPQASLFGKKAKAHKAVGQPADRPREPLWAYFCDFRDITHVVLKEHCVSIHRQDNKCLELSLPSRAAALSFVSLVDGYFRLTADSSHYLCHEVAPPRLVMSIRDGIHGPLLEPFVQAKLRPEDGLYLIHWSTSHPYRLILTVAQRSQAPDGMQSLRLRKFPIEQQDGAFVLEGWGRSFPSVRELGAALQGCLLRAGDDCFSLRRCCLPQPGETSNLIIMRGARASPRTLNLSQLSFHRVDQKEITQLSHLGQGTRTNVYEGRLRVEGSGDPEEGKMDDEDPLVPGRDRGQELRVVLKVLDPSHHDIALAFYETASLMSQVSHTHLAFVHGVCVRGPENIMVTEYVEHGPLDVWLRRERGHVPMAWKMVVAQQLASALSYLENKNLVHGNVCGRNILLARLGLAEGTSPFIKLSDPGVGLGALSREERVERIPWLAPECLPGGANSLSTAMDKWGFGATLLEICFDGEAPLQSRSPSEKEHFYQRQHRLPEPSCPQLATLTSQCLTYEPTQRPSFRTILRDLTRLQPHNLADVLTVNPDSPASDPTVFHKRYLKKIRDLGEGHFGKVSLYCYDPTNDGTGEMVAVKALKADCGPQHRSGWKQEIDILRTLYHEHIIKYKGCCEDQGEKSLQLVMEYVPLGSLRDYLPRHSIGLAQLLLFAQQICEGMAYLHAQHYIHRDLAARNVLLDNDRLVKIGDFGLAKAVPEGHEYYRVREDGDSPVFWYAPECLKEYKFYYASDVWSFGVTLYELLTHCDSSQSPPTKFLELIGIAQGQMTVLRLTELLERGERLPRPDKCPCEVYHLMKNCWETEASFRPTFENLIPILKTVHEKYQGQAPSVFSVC"}, "source": "patent US20250051338A1", "about": "“TYK2 DEGRADERS AND USES THEREOF” (Kymera Therapeutics, Inc., priority 2021, published 2025)", "key": {"TYK2 [1]": {"target": "T1, TYK2 (Homo sapiens, UniProt P29597)", "assay": "TYK2 degradation MSD assay in EBV-B cells", "type": "cell-based", "conditions": "read-out: TYK2 MSD DC50 rating in EBV-B, 4 to 24 hours incubation", "experimental": "(§1) Example 3. TYK2 Degradation MSD Assay in EBV-B, OCI-LY10, and Human PBMC Cells\n(§2) Degradation of TYK2 in cells was quantitatively measured using Meso Scale Discovery (MSD) technology. EBV-B, OCI-LY10 or human PBMC cells were seeded in 96-well plates with a density of 0.4 million cells per well in 100 μl fresh media. Compounds were then added to the assay plates with a final top concentration of 1 to 10 μM in a 1:3 dilution series with total of 9 doses. The assay plates were then incubated for 4 to 24 hours at 37° C. under 5% CO2. The assay plates were then centrifuged for 5 minutes, and the cell pellets were treated with 100 μl/well RIPA lysis buffer (Boston Bioproducts, BP-115D) with protease and phosphatase inhibitors (Roche, 05892791001 and 04906837001). To prepare MSD assay plates (MSD, L15XA), the plates were coated with the capture antibody (Santa Cruz Biotechnology, SC-5271) in PBS, at 40 μl/well. The plates were then incubated overnight at 4° C., washed 3 times with 150 μl/well TBST buffer (Cell Signaling Technology, 9997S) and blocked with 150 μl/well blocking buffer (MSD, R93BA-4). Cell lysates were then added to MSD assay plates and the plates were incubated at room temperature for 1 hour. The plates were then washed 3 times with 150 μl/well TBST buffer and 25 μl/well primary detection antibody (Cell Signaling Technology, #9312). The assay plates were then incubated at room temperature for 1 hour, washed 3 times with 150 μl/well TBST buffer, and 25 μl/well secondary detection antibody, SULFO-TAG anti-rabbit antibody (MSD, R32AB-1) were added. The assay plates were then incubated at room temperature for 1 hour, washed 3 times with 150 μl/well TBST buffer, and 150 μl/well MSD reading buffer (MSD, R92TC-2) were added. The plates were then analyzed by an MSD reader. The data was analyzed by GraphPad Prism and the dose dependent TYK2 degradation was fit using the four-parameter inhibitor vs. response nonlinear regression. The DC50 data were measured and categorized into different levels in Table H. The compound with DC50 less than or equal to 1 nM is marked as A, with DC50 more than 1 nM and less than or equal to 10 nM is marked as B, with DC50 more than 10 nM and less than or equal to 100 nM is marked as C, and with DC50 more than 100 nM or not available is marked as D."}, "TYK2 [2]": {"target": "T1, TYK2", "assay": "TYK2 degradation MSD assay in OCI-LY10 cells", "conditions": "read-out: TYK2 MSD DC50 rating in OCI-LY10, 4 to 24 hours incubation", "experimental": "as §1, §2"}, "TYK2 [3]": {"target": "T1, TYK2", "assay": "TYK2 degradation MSD assay in human PBMC cells", "conditions": "read-out: TYK2 MSD DC50 rating in human PBMC, 4 to 24 hours incubation", "experimental": "as §1, §2"}}, "data": [{"smiles": "CNc1cc(N2CCc3c(-c4ccc(CN5CCC(N6CCN(c7ccc8c(c7)n(C)c(=O)n8C7CCC(=O)NC7=O)CC6)C(F)(F)C5)cn4)cccc32)nn2c(C(=O)N[C@@H]3C[C@@H]3F)cnc12", "note": "(stereo partly drawn)", "values": [{"measurement": "DC50", "setting": "TYK2 [1]", "result": "> 100", "unit": "nM"}, {"measurement": "DC50", "setting": "TYK2 [2]", "result": "< 1", "unit": "nM"}, {"measurement": "DC50", "setting": "TYK2 [3]", "result": "> 100", "unit": "nM"}]}, {"smiles": "Cn1c(=O)n(C2CCC(=O)NC2=O)c2ccc(CCOCCOCCOCCOCCOCCOCCNc3cc(Nc4cccn(-c5ccccn5)c4=O)nn4c(C(=O)N[C@@H]5C[C@@H]5F)cnc34)cc21", "note": "(stereo partly drawn)", "values": [{"measurement": "DC50", "setting": "TYK2 [1]", "result": "> 100", "unit": "nM"}, {"measurement": "DC50", "setting": "TYK2 [2]", "result": "> 100", "unit": "nM"}, {"measurement": "DC50", "setting": "TYK2 [3]", "result": "> 100", "unit": "nM"}]}, {"smiles": "CNC(=O)c1cnc(Nc2ccc(C(=O)NCCOCCOCCOCCOCCOCCOCCc3cccc4c3n(C)c(=O)n4C3CCC(=O)NC3=O)cn2)cc1Nc1cccc(-c2ncc(F)cn2)c1OC", "note": "(stereo not drawn)", "values": [{"measurement": "DC50", "setting": "TYK2 [1]", "result": "10 to 100", "unit": "nM"}, {"measurement": "DC50", "setting": "TYK2 [2]", "result": "> 100", "unit": "nM"}, {"measurement": "DC50", "setting": "TYK2 [3]", "result": "1 to 10", "unit": "nM"}]}, {"smiles": "CNc1cc(Nc2cccc(-c3ccc(CN4CCN(c5ccc(-c6ccc7c(c6)n(C)c(=O)n7C6CCC(=O)NC6=O)cc5)CC4)cn3)c2)nn2c(C(=O)NC3CCOC3)cnc12", "note": "(stereo not drawn)", "values": [{"measurement": "DC50", "setting": "TYK2 [1]", "result": "> 100", "unit": "nM"}, {"measurement": "DC50", "setting": "TYK2 [2]", "result": "1 to 10", "unit": "nM"}, {"measurement": "DC50", "setting": "TYK2 [3]", "result": "> 100", "unit": "nM"}]}, {"smiles": "Cn1c(=O)n(C2CCC(=O)NC2=O)c2ccc(-c3ccc([C@H]4CC[C@H](N5CCN(Cc6ccc(-c7cccc(Nc8ccc9ncc(C(=O)NC%10CC%10)n9n8)c7)nc6)CC5)CC4)cc3)cc21", "note": "(stereo partly drawn)", "values": [{"measurement": "DC50", "setting": "TYK2 [1]", "result": "> 100", "unit": "nM"}, {"measurement": "DC50", "setting": "TYK2 [2]", "result": "> 100", "unit": "nM"}, {"measurement": "DC50", "setting": "TYK2 [3]", "result": "> 100", "unit": "nM"}]}, {"smiles": "CNc1cc(N2CCc3c(N4CCN(CC5CCN(c6ccc(-c7ccc8c(c7)n(C)c(=O)n8C7CCC(=O)NC7=O)cc6)CC5)CC4)cccc32)nn2c(C(=O)N[C@@H]3C[C@@H]3F)cnc12", "note": "(stereo partly drawn)", "values": [{"measurement": "DC50", "setting": "TYK2 [1]", "result": "> 100", "unit": "nM"}, {"measurement": "DC50", "setting": "TYK2 [2]", "result": "> 100", "unit": "nM"}, {"measurement": "DC50", "setting": "TYK2 [3]", "result": "> 100", "unit": "nM"}]}, {"smiles": "CNc1cc(Nc2cccn(-c3ccc(CN4CCC(N5CC(N6CCN(c7ccc8c(c7)n(C)c(=O)n8C7CCC(=O)NC7=O)CC6)C5)CC4)cn3)c2=O)nn2c(C(=O)N[C@@H]3C[C@@H]3F)cnc12", "note": "(stereo partly drawn)", "values": [{"measurement": "DC50", "setting": "TYK2 [1]", "result": "> 100", "unit": "nM"}, {"measurement": "DC50", "setting": "TYK2 [2]", "result": "< 1", "unit": "nM"}, {"measurement": "DC50", "setting": "TYK2 [3]", "result": "> 100", "unit": "nM"}]}, {"smiles": "CNC(=O)c1cnc(Nc2ccc(C(=O)NCCOCCOCCOCCOCCc3cccc4c3n(C)c(=O)n4C3CCC(=O)NC3=O)cn2)cc1Nc1cccc(-c2ncc(F)cn2)c1OC", "note": "(stereo not drawn)", "values": [{"measurement": "DC50", "setting": "TYK2 [1]", "result": "1 to 10", "unit": "nM"}, {"measurement": "DC50", "setting": "TYK2 [2]", "result": "> 100", "unit": "nM"}, {"measurement": "DC50", "setting": "TYK2 [3]", "result": "1 to 10", "unit": "nM"}]}, {"smiles": "CNC(=O)c1cnc(Nc2cc(CN3CCN(c4ccc5c(c4)n(C)c(=O)n5C4CCC(=O)NC4=O)CC3)ccn2)cc1Nc1cccc(-c2ncc(F)cn2)c1OC", "note": "(stereo not drawn)", "values": [{"measurement": "DC50", "setting": "TYK2 [1]", "result": "< 1", "unit": "nM"}, {"measurement": "DC50", "setting": "TYK2 [2]", "result": "> 100", "unit": "nM"}, {"measurement": "DC50", "setting": "TYK2 [3]", "result": "< 1", "unit": "nM"}]}, {"smiles": "CNc1cc(Nc2cccn(-c3ccc(C(=O)N4CCC5(CCN(c6ccc(-c7ccc8c(c7)n(C)c(=O)n8C7CCC(=O)NC7=O)cc6)C5)C4)cn3)c2=O)nn2c(C(=O)N[C@@H]3C[C@@H]3F)cnc12", "note": "(stereo partly drawn)", "values": [{"measurement": "DC50", "setting": "TYK2 [1]", "result": "> 100", "unit": "nM"}, {"measurement": "DC50", "setting": "TYK2 [2]", "result": "< 1", "unit": "nM"}, {"measurement": "DC50", "setting": "TYK2 [3]", "result": "> 100", "unit": "nM"}]}, {"smiles": "CNc1cc(Nc2c(F)ccc(-c3ccc(CN4CCN(c5ccc(-c6ccc7c(c6)n(C)c(=O)n7C6CCC(=O)NC6=O)cc5)CC4)cn3)c2OC)nn2c(C(=O)N[C@@H]3C[C@@H]3F)cnc12", "note": "(stereo partly drawn)", "values": [{"measurement": "DC50", "setting": "TYK2 [1]", "result": "> 100", "unit": "nM"}, {"measurement": "DC50", "setting": "TYK2 [2]", "result": "1 to 10", "unit": "nM"}, {"measurement": "DC50", "setting": "TYK2 [3]", "result": "> 100", "unit": "nM"}]}, {"smiles": "CNc1cc(Nc2cccn(-c3ccc(C(=O)N[C@H]4CC[C@H](CN5CC[C@@H](N6CCN(Cc7ccc8c(c7)n(C)c(=O)n8C7CCC(=O)NC7=O)CC6)C5)CC4)cn3)c2=O)nn2c(C(=O)N[C@@H]3C[C@@H]3F)cnc12", "note": "(stereo partly drawn)", "values": [{"measurement": "DC50", "setting": "TYK2 [1]", "result": "> 100", "unit": "nM"}, {"measurement": "DC50", "setting": "TYK2 [2]", "result": "< 1", "unit": "nM"}, {"measurement": "DC50", "setting": "TYK2 [3]", "result": "> 100", "unit": "nM"}]}, {"smiles": "CNc1cc(N2CCc3c(-c4ccc(CN5CCN(c6ccc7c(c6)n(C)c(=O)n7C6CCC(=O)NC6=O)CC5)cn4)cccc32)nn2c(C(=O)N[C@@H]3C[C@@H]3F)cnc12", "note": "(stereo partly drawn)", "values": [{"measurement": "DC50", "setting": "TYK2 [1]", "result": "> 100", "unit": "nM"}, {"measurement": "DC50", "setting": "TYK2 [2]", "result": "< 1", "unit": "nM"}, {"measurement": "DC50", "setting": "TYK2 [3]", "result": "> 100", "unit": "nM"}]}, {"smiles": "CNc1cc(Nc2cccn(-c3ccc(C(=O)N4CCOC5(CN(CC#Cc6ccc7c(c6)n(C)c(=O)n7C6CCC(=O)NC6=O)C5)C4)cn3)c2=O)nn2c(C(=O)N[C@@H]3C[C@@H]3F)cnc12", "note": "(stereo partly drawn)", "values": [{"measurement": "DC50", "setting": "TYK2 [1]", "result": "> 100", "unit": "nM"}, {"measurement": "DC50", "setting": "TYK2 [2]", "result": "> 100", "unit": "nM"}, {"measurement": "DC50", "setting": "TYK2 [3]", "result": "> 100", "unit": "nM"}]}, {"smiles": "CNC(=O)c1cnc(Nc2ccc(C(=O)NCCOCCOCCc3cccc4c3n(C)c(=O)n4C3CCC(=O)NC3=O)cn2)cc1Nc1cccc(-c2ncc(F)cn2)c1OC", "note": "(stereo not drawn)", "values": [{"measurement": "DC50", "setting": "TYK2 [1]", "result": "10 to 100", "unit": "nM"}, {"measurement": "DC50", "setting": "TYK2 [2]", "result": "> 100", "unit": "nM"}, {"measurement": "DC50", "setting": "TYK2 [3]", "result": "1 to 10", "unit": "nM"}]}, {"smiles": "CNc1cc(N2CCc3c(-c4ccc(C(=O)N5CCN(CC6CCN(c7ccc(-c8ccc9c(c8)n(C)c(=O)n9C8CCC(=O)NC8=O)cc7)CC6)CC5)cn4)cccc32)nn2c(C(=O)N[C@@H]3C[C@@H]3F)cnc12", "note": "(stereo partly drawn)", "values": [{"measurement": "DC50", "setting": "TYK2 [1]", "result": "> 100", "unit": "nM"}, {"measurement": "DC50", "setting": "TYK2 [2]", "result": "1 to 10", "unit": "nM"}, {"measurement": "DC50", "setting": "TYK2 [3]", "result": "> 100", "unit": "nM"}]}, {"smiles": "CNC(=O)c1cnc(Nc2ccc(C(=O)N(C)C3CCN(c4cccc5c4n(C)c(=O)n5C4CCC(=O)NC4=O)CC3)cn2)cc1Nc1cccc(-c2ncc(F)cn2)c1OC", "note": "(stereo not drawn)", "values": [{"measurement": "DC50", "setting": "TYK2 [1]", "result": "< 1", "unit": "nM"}, {"measurement": "DC50", "setting": "TYK2 [2]", "result": "< 1", "unit": "nM"}, {"measurement": "DC50", "setting": "TYK2 [3]", "result": "< 1", "unit": "nM"}]}]}
